From paper PMC12195256, “Binding and Activating of Analgesic Crotalphine with Human TRPA1” (Membranes, 2025)
Entries after “also recorded” stand apart in the source; their conditions may differ.

Sequences of proteins named here, by UniProt entry; tags and fusion partners are left off.
UniProt O75762, whole entry C641S: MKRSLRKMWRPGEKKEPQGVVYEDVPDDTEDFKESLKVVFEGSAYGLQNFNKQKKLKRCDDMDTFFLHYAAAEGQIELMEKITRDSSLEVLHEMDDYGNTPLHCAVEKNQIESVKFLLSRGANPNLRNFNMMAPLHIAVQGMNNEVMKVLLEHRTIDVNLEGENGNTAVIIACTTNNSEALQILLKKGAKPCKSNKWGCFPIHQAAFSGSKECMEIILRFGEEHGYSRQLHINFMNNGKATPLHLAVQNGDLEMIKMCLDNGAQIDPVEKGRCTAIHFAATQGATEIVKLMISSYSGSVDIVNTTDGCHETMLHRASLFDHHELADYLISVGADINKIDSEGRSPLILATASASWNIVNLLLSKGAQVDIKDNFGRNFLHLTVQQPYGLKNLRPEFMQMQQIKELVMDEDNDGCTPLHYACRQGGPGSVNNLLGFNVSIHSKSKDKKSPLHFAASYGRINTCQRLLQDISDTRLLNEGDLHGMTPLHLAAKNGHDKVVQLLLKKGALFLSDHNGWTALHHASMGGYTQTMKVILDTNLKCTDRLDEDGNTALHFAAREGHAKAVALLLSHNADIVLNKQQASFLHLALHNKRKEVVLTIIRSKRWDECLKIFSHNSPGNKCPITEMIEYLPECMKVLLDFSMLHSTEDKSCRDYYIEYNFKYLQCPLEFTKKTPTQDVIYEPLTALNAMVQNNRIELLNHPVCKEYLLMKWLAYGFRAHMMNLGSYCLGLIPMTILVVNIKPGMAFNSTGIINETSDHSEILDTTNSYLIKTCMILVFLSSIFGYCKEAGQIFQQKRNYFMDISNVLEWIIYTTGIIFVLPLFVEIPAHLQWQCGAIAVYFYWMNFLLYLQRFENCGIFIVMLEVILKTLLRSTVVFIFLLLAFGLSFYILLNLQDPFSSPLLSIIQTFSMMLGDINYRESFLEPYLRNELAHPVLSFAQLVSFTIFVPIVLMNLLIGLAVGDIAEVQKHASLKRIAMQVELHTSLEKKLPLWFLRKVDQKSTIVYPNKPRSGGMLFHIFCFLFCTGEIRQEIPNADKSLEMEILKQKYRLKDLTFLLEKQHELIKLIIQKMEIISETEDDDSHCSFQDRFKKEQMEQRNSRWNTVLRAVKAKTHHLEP
UniProt O75762, whole entry C665S: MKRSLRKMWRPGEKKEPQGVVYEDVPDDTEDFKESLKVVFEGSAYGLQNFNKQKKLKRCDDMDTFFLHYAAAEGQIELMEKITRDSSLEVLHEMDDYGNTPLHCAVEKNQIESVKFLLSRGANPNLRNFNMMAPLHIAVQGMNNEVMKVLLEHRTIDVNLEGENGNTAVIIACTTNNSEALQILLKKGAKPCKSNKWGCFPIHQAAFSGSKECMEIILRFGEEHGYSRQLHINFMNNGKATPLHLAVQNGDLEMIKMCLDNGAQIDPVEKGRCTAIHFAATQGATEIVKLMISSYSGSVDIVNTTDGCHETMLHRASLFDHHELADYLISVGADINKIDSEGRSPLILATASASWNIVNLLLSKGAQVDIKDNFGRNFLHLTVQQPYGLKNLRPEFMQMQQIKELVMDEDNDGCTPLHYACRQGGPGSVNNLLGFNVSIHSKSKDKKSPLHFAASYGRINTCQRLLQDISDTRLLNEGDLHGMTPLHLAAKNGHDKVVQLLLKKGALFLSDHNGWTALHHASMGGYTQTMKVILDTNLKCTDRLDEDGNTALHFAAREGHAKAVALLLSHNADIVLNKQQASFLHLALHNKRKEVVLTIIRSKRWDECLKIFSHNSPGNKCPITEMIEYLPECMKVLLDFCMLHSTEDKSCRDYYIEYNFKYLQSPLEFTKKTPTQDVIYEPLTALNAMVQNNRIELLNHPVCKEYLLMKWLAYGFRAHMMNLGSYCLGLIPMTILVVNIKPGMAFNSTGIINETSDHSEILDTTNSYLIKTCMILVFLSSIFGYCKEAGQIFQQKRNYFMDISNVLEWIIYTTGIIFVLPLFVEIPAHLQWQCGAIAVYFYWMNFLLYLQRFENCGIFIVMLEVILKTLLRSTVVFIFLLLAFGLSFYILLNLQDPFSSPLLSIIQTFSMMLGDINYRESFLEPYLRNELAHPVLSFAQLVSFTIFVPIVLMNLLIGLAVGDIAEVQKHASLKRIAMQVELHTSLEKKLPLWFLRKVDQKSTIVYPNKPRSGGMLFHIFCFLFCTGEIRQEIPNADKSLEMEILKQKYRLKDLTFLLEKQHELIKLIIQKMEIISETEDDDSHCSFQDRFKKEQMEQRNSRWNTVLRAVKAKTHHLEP
UniProt O75762, whole entry C621S: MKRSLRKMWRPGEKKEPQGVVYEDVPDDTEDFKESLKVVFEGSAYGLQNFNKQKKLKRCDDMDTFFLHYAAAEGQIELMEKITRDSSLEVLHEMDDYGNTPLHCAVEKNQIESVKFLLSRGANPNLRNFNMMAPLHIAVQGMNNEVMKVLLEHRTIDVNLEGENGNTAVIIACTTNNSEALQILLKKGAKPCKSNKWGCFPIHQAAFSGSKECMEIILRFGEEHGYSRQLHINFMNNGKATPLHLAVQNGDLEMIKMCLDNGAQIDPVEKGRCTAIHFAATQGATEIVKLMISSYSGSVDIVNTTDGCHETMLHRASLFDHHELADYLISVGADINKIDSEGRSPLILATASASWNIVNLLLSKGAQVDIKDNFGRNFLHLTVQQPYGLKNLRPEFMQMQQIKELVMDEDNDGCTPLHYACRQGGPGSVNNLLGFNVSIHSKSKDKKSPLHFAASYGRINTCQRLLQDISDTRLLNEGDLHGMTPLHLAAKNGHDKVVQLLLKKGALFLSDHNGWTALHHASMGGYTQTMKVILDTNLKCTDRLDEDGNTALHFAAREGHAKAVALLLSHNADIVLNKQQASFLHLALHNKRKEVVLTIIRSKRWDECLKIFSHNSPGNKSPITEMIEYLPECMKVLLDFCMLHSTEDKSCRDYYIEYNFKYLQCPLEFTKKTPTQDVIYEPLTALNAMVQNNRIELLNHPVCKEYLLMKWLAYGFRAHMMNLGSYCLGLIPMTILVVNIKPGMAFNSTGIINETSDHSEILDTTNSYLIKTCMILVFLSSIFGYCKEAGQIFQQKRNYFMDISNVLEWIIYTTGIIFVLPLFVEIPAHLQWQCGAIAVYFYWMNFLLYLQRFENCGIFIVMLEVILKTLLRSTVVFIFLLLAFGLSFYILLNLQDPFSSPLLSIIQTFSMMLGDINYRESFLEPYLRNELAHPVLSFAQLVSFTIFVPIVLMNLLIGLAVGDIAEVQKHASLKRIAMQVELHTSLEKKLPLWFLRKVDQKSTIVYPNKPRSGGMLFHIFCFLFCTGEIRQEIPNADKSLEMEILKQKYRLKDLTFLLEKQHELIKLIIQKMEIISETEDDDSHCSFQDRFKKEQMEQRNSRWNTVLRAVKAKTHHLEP

Key:
[1] = cited from earlier work
Source text: Importantly, the targeting of ...

TRPA1 ion channel = conditions: cited from earlier work
Source text: Importantly, the targeting of ... || The motion of transmembrane helices widens both the upper and lower gates of the ion permeation pathway. The upward movement and rotation of S6 expand the lower gate formed by residues I957 and V961. Simultaneously, the movement of the pore helices (P1 and P2) causes the upper gate, formed by residues G914 and D915 within the selectivity filter, to shift upward and dilate. […] Specifically, the pore diameter of the lower gate expands from 5.4 Å to 6.7 Å, while the ...

[2] = molecular target: T1, hTRPA1 C641S mutant (GFP-tagged) (Homo sapiens, UniProt O75762, C641S); assay: MST binding of crotalphine to TRPA1 C641S
T1 construct: Full-length human TRPA1 protein was expressed in HEK293F cells and purified to homogeneity; twin-Strep (C); made in house; host or cells: HEK293F cells (BacMam baculovirus amplified in SF9)
Procedure: (§1) The equilibrium dissociation constant (Kd) value of crotalphine with respect to the wild-type and mutant of hTRPA1 was determined using the Monolith NT.115 instrument produced by NanoTemper (Munich, Germany). First, 10 μL of the target protein with a concentration of 50 nM and an equal volume of crotalphine with an initial concentration of 4 μM were incubated on ice for 5 min. Then, the incubated sample was loaded into capillaries and placed into the instrument for the assessment of the binding affinity. Due to the EGFP fluorescent tag on the protein sample, the nano-blue channel was directly chosen for measurement. The measurements were carried out at 22 °C with 10% LED power and medium MST power. The data were analyzed using Nano-Temper Analysis 2.3 software.

[3] = molecular target: T2, hTRPA1 C665S mutant (GFP-tagged) (Homo sapiens, UniProt O75762, C665S); assay: MST binding of crotalphine to TRPA1 C665S; conditions: 22 °C
T2 construct: Full-length human TRPA1 protein was expressed in HEK293F cells and purified to homogeneity; twin-Strep (C); made in house; host or cells: HEK293F cells (BacMam baculovirus amplified in SF9)
Procedure: as §1

[4] = molecular target: T3, hTRPA1 C621S mutant (GFP-tagged) (Homo sapiens, UniProt O75762, C621S); assay: MST binding of crotalphine to TRPA1 C621S; conditions: 50 nM EGFP-tagged protein, crotalphine initial concentration 4 μM, 5 min on ice, 22 °C, compared with wild-type, Kd could not be determined
T3 construct: Full-length human TRPA1 protein was expressed in HEK293F cells and purified to homogeneity; twin-Strep (C); made in house; host or cells: HEK293F cells (BacMam baculovirus amplified in SF9)
Procedure: as §1

TRPA1 C621S mutant = assay: Whole-cell patch-clamp, TRPA1 C621S; assay type: cell-based, human; conditions: HEK 293T, 100 nM crotalphine, +120 mV, 25 °C, n = 9
Procedure: (§2) HEK 293T cells were transiently transfected with human TRPA1 (hTRPA1)-encoding plasmids. Twenty four hours after transfection, the GFP-positive cells were patch-clamped at room temperature (25 °C) with a HEKA EPC10 single patch clamp amplifier (HEKA, Lambrecht, Germany). The currents of TRPA1 were recorded in the whole cell. After obtaining electrical access, a 200 ms voltage ramp from −120 mV to +120 mV followed by a return to the holding potential of −80 mV was applied throughout all compound addition periods to measure the current of TRPA1. For analysis, the currents measured at +120 mV were used. Cell membrane capacitance was recorded directly from the amplifier following whole-cell access. Current density was calculated as the current amplitude divided by the cell membrane capacitance. The voltage protocol was applied every 10 s during the experimental recording period. The extracellular solution contained 137 mM NaCl, 4 mM KCl, 10 mM Glucose, 10 mM HEPES, 1 mM MgCl2, 2 mM CaCl2, pH 7.4. The intracellular medium consisted of 140 mM CsCl, 1 mM MgCl2, 10 mM HEPES, 5 mM EGTA, 2.6 mM CsCl, pH 7.2. All chemicals were of analytical grade.

human TRPA1 (hTRPA1) = assay: Whole-cell patch-clamp, wild-type TRPA1; assay type: cell-based; conditions: HEK 293T cells transfected with hTRPA1, +120 mV, 25 °C
Procedure: as §2

TRPA1 C665S mutant = assay: Whole-cell patch-clamp, TRPA1 C665S; assay type: cell-based, human; conditions: HEK 293T, 100 nM crotalphine, +120 mV, 25 °C, n = 9
Procedure: as §2

TRPA1 C641S mutant = assay: Whole-cell patch-clamp, TRPA1 C641S; assay type: cell-based, human; conditions: HEK 293T, 100 nM crotalphine, +120 mV, 25 °C, n = 9
Procedure: as §2

NC(=O)CC[C@@H]1NC(=O)[C@@H](NC(=O)[C@H](CC(N)=O)NC(=O)[C@H](CCC(=O)O)NC(=O)[C@@H]2CCCN2C(=O)[C@H](CO)NC(=O)[C@H](Cc2ccccc2)NC(=O)[C@@H]2CCC(=O)N2)CSSC[C@@H](C(=O)O)NC(=O)[C@@H]2CCCN2C(=O)[C@H](CCC(N)=O)NC(=O)[C@H](CO)NC(=O)[C@H](CCC(=O)O)NC(=O)CNC1=O [crotalphine]
antinociceptive effect [1]: effective and persistent antinociceptive effect | tolerance on repeated administration ([1]; repeated administration, unlike opioid drugs): does not induce tolerance | activation and desensitization of TRPA1 (TRPA1 ion channel; agonist): specifically activating and strongly desensitizing the TRPA1 ion channel | extent of TRPA1 activation (TRPA1 ion channel): partially activates TRPA1 | change of interaction with crotalphine versus wild-type, C641S ([2]; 22 °C): does not significantly alter the interaction with crotalphine | Kd ([2]; Monolith NT.115, 50 nM EGFP-tagged protein, crotalphine initial concentration 4 μM, 5 min on ice, measured at 22 °C, read-out: dissociation constant (Kd), C641S): 0.123 µM | change of interaction with crotalphine versus wild-type, C665S [3]: does not significantly alter the interaction with crotalphine | interaction with crotalphine / Kd, C621S [4]: significantly weakened, to the extent that the dissociation constant (Kd) could not be determined | current upon crotalphine application, C621S (TRPA1 C621S mutant): no detectable currents; also recorded: significant reduction in crotalphine’s effect | agonist activity at TRPA1 (human TRPA1 (hTRPA1)): acts as an agonist of TRPA1 | current response, C665S, versus wild-type (TRPA1 C665S mutant): current responses similar to those of the wild-type channel | current response, C641S, versus wild-type (TRPA1 C641S mutant): current responses similar to those of the wild-type channel
